Measurements reported in ChEMBL document CHEMBL1145020, “Synthesis and structure-activity relationships of 6,7-disubstituted 4-anilinoquinoline-3-carbonitriles. The design of an orally active, irreversible inhibitor of the tyrosine kinase activity of the epidermal growth factor receptor (EGFR) and the human epidermal growth factor receptor-2 (HER-2)” (J Med Chem, 2003).

The chains behind the UniProt entries cited, without tags or fusion partners.
UniProt P00533, whole entry: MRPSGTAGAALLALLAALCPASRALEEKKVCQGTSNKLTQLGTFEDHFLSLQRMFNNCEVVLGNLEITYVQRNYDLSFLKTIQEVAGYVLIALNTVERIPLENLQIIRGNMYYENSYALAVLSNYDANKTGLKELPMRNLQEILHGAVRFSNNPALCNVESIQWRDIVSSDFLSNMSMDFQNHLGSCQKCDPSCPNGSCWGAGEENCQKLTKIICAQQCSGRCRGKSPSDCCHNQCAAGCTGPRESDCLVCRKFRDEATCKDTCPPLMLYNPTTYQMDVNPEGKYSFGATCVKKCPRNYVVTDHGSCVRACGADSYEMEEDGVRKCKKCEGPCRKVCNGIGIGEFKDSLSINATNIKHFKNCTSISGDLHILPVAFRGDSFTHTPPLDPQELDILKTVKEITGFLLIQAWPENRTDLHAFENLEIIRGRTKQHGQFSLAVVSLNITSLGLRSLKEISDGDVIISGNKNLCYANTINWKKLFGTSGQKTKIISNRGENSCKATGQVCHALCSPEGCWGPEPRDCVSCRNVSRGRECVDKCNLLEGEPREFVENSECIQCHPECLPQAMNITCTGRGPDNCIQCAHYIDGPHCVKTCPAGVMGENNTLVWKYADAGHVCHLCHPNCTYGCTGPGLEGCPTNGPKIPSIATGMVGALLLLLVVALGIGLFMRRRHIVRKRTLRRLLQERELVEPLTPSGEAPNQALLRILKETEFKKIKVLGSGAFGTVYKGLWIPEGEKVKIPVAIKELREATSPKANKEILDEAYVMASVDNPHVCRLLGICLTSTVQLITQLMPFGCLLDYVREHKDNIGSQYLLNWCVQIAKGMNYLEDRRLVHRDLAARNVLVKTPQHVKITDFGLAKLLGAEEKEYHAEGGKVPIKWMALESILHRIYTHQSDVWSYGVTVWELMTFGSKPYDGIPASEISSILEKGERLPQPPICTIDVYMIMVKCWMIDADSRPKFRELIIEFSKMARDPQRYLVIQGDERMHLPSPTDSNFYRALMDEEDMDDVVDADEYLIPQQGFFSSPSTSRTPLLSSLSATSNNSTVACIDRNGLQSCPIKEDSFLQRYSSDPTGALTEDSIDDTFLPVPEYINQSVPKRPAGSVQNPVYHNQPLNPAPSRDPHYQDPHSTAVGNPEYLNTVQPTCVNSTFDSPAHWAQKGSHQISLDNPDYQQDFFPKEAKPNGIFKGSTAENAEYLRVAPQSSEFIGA

Experiments:
[1] = test system: A-431; experiment: Concentration required to inhibit growth of human carcinoma epidermoid (A431) cell line; format: functional, cell-based
[2] = target: Epidermal growth factor receptor (Homo sapiens, UniProt P00533)

| IC50 [1] [nM] | IC50 [2] [nM] | Compound |
| --- | --- | --- |
| 130 | – | CCOc1cc2ncc(C#N)c(Nc3cccc(Br)c3)c2cc1NC(=O)/C=C/CN(C)C |
| 140 | 10300 | CCOc1cc2ncc(C#N)c(Nc3cccc(Br)c3)c2cc1NC(=O)/C=C/CN1CCOCC1 |
| 260 | 2700 | C=C(CN1CCOCC1)C(=O)Nc1ccc2ncc(C#N)c(Nc3ccc(F)c(Cl)c3)c2c1 |
